Results from PubChem BioAssay AID873 (PCMD, 2007).
This is a selection; strong and weak results do not stand in their true shares. The source made the active and inactive calls.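 How the source made its calls: active means inhibition of 40% or more; inactive means the rest.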

Sequences of proteins named here, by UniProt entry; tags and fusion partners are left off. Residues count along the entry.
UniProt Q9Y337, 67-293 limits assumed: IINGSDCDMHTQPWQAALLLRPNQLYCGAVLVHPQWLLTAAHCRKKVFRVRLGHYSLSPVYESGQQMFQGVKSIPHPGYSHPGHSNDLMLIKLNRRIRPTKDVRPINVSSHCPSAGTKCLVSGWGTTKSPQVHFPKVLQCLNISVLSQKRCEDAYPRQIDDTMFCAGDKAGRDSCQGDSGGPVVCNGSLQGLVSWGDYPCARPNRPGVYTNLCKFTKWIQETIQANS

What follows are compounds tested against Kallikrein-5 (Homo sapiens) (UniProt Q9Y337) (assay: human KLK5 protease inhibitors, primary screen, biochemical, 1536-well (AID 873;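 further: 0% = enzyme controls without compound and 100% = no-enzyme blanks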)). Details: recombinant hK5, fluorogenic AMC substrate cleavage; at 5 µM; hits give high values.

| SMILES | inhibition |
| --- | --- |
| COc1ccc(C(=O)NCC2(N3CCOCC3)CCCCC2)cc1OC | inactive: 7.29% |
| O=C(OC1CN2CCC1CC2)C1c2ccccc2C=Cc2ccccc21 (centres undefined) | inactive: -15% |
| N/C(=N\O)c1c(N)no[n+]1[O-] | inactive: -6.73% |
| N#Cc1ccc(C(=O)NCC2(N3CCCCC3)CCCCC2)cc1 | inactive: 4.35% |
| c1ccc(CN2CCC(Nc3ccccc3)CC2)cc1 | inactive: -20.1% |
| Fc1ccccc1NC1CCN(Cc2ccccc2)CC1 | inactive: -13.7% |
| CN(C)c1ccc(C(=O)NCC2(N3CCCCC3)CCCCC2)cc1 | inactive: 4.71% |
| CCN1CCC(Nc2cccc(F)c2)CC1 | inactive: -8.59% |
| CC(C)(C)OC(=O)N1CCC(Nc2ccccc2)CC1 | inactive: 5.92% |
| CCOc1ncccc1C(=O)NCC1(N2CCOCC2)CCCCC1 | inactive: -4.63% |
| CCCOc1ccc(C)cc1CN(CCCl)CCCl | inactive: -3.22% |
| CCC(CO)(C(=O)OC1CN2CCC1CC2)c1ccccc1 (centres undefined) | inactive: -2.89% |
| COc1cc(OC)cc(C(=O)NCC2(N3CCOCC3)CCCCC2)c1 | inactive: -4.8% |
| COc1ccc(C(=O)NCC2(N3CCCCC3)CCCCC2)c(OC)c1OC | inactive: -10.9% |
| CCOC(=O)N1CCC(Nc2ccc(OC)cc2)CC1 | inactive: -0.28% |
| O=C(OC1CN2CCC1CC2)C1c2ccccc2Oc2ccccc21 (centres undefined) | inactive: -4.72% |
| N#CC1(Nc2ccccc2)CCN(Cc2ccccc2)CC1 | inactive: -7.82% |
| O=C(NCC1(N2CCOCC2)CCCCC1)c1cc2ccccc2o1 | inactive: -1.44% |
| COc1ccc(NC2CCN(CCc3ccccc3)CC2)c(OC)c1 | inactive: 10% |
| CCOc1ccc(C)cc1CN(CCCl)CCCl | inactive: -9.37% |
| Cc1ccc(OCC(C)C)c(CN(CCCl)CCCl)c1 | inactive: -4.82% |
| O=C(NCC1(N2CCCCC2)CCCCC1)c1cccc([N+](=O)[O-])c1 | inactive: -15.2% |
| N#CC1(Nc2ccccc2)CCN(CCc2ccccc2)CC1 | inactive: -2.29% |
| CN1CCN(CCOC(=O)C(O)(c2ccccc2)c2ccccc2)CC1 | inactive: -20.3% |
| COc1ccc(NC2CCN(C(=O)OC(C)(C)C)CC2)cc1 | inactive: -7.78% |
| O=C(NCC1(N2CCOCC2)CCCCC1)c1cc(=O)[nH]c2ccccc12 | inactive: -4.59% |
| COc1ccc(CN(CCCl)CCCl)cc1Cl | inactive: -2.47% |
| CN(C)c1cccc(C(=O)NCC2(N3CCCCC3)CCCCC2)c1 | inactive: -9.51% |
| CC(C)c1ccc(NC2CCN(C(=O)OC(C)(C)C)CC2)cc1 | inactive: -5.25% |
